Ab-91 heavy chain CDR variants: yeast mating affinities

Source: Engelhart et al. 2022 (doi:10.1038/s41597-022-01779-4), MIT Lincoln Laboratory and A-Alpha Bio; data file from the FLAb repository.

All variants were tested on one target, the spike HR2 peptide PDVDLGDISGINAS (SARS-CoV-2).

The variants keep the light chain, the linker and the frameworks of Ab-91 (scFv order VL, three GGGGS repeats, VH).
VL: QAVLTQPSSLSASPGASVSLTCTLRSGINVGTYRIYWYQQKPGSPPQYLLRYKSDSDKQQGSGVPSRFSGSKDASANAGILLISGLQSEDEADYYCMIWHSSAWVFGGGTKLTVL
VH: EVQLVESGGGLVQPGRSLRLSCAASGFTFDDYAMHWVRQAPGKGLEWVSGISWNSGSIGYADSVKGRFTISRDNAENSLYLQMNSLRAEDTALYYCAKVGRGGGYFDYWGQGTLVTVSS

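In library AAYL51, one, two or three CDR residues were substituted; doubles and triples were drawn at random. AlphaSeq pools MATa yeast showing the antibodies with MATalpha yeast showing the peptide. Binding brings cells together so that they mate, and sequencing counts the barcode pairs among the diploids. Scores were corrected for input abundance and mapped to Kd with protein pairs of known affinity run in the same pool. Each pool was mated in three replicate cultures.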

Variants are written as CDR1, CDR2 and CDR3 of the heavy chain (limits as in the source). Parent: GFTFDDYAMH, GISWNSGSIGYADSVK, VGRGGGYFDY.
This list gathers variants with a substitution at S63 (VH, numbered from residue 1).
The read-out is the apparent dissociation constant on a log10 scale (nM): the lower, the stronger.
Replicates are averaged; those with no signal do not enter the mean.
"no signal" means that the variant was in the library but no mating with the target was seen in any replicate; the authors take this as a sign of poor binding, and no number exists.
Background: pairings of library AAYL51 with three empty control strains gave a value in 21% of cases (median 4.54, 5th percentile 3.26). Values in that range, when seen in few replicates, are hard to tell from nonspecific mating.
In this assay the parent's reference entry averaged 1.86; its copy inside this library read 0.88.

Variant LFTWDDYAMH | GISWNSGSIGYADKVK | VGRGGGYFDY showed no signal (0 of 3 replicates). With GFTFDDYAMH | GISWNHESIGYADLVK | VGRGGGYFDY the result was no signal (0 of 3 replicates). Variant GFTFDYYAMH | GISWNSGSEGYADNVK | VGRGGGYFDY showed -0.54 (3 of 3 replicates). Variant GFTFDDYAMH | GISWNSGSSGYADAVK | VGRGGGYFDY showed 4.17 (2 of 3 replicates). Variant GFTFDDYAMH | GISWNSGSIGYRDLVK | VLRGGGYFDY gave no signal (0 of 3 replicates). With GFTFDDYAMH | GISWNSGSFGYSDHVK | VGRGGGYFDY the result was no signal (0 of 3 replicates).

Variant GFTFDDYAMH | GISWNSGSIGYADILK | VGRGGGYFDY showed no signal (0 of 3 replicates). Variant GFTFDDYAMH | GISWNSASIGYADRVK | VGRGGRYFDY gave 3.38 (1 of 3 replicates). Variant GFTFCDYAMH | YISWNSGSIGYADVVK | VGRGGGYFDY gave no signal (0 of 3 replicates). Variant GFTFDDYAMH | GIWWNSGSIGYADFVG | VGRGGGYFDY gave 3.44 (1 of 3 replicates). Variant GFTFDVYAMH | GISWNSGSIGYADMVK | VGRGGGYFDY gave 0.85 (3 of 3 replicates). Variant GFTFDDYAMH | GISWNSGSIGYADELK | VGRGGGYFDM showed 1.47 (3 of 3 replicates).

With GSTFDDYAMH | GISWNSGSIGYADFVK | VGRGGGYTDY the result was no signal (0 of 3 replicates). Variant GFTYDDYAMH | GISWNSGSIGYADVVK | VGRGGGYCDY gave no signal (0 of 3 replicates). With GFTFDSYAMH | GISWNSQSIGYADWVK | VGRGGGYFDY the result was 0.15 (3 of 3 replicates). With GFTFDDYAMH | GISWNSGCIGYADQVK | VFRGGGYFDY the result was no signal (0 of 3 replicates). For GFTFYDYAMH | GISWNSGSIGYADDVK | VGRGGGYFDV, the assay gave 0.59 (3 of 3 replicates). Variant GFPFDDYANH | GISWNSGSIGYADFVK | VGRGGGYFDY showed 3.72 (1 of 3 replicates).

With GFTFDDYAMH | GISWNSGSIGYASFVK | EGRGGGYFDY the result was 4.14 (1 of 3 replicates). Variant GFTFDDYAMH | GISWNSGSIRYSDQVK | VGRGGGYFDY showed 4.31 (1 of 3 replicates). Variant GFFFDDYAMH | GISWNSGSIGYADRRK | VGRGGGYFDY gave 5.52 (2 of 3 replicates). Variant GFTFDDYAMH | GQSLNSGSIGYADTVK | VGRGGGYFDY gave 4.94 (3 of 3 replicates). Variant GFTFDDYAMH | GISWNSGSIGYADVVI | VGRGGGYFDY gave 4.26 (1 of 3 replicates). With GFTFDDYAMH | GFSWNSGSIGYADYVK | VGRPGGYFDY the result was no signal (0 of 3 replicates).

With GFTFDDYAMH | GISWNSGSIGYADGVK | VQRGGGYFDY the result was 4.84 (1 of 3 replicates). Variant VFTFDDYFMH | GISWNSGSIGYADDVK | VGRGGGYFDY showed 4.95 (3 of 3 replicates). With GFTFDDYAMH | GIQWNSGSIGYADQVK | VGRGGGLFDY the result was no signal (0 of 3 replicates). For GFTFDDYAMH | GISWNSESIGYADFVK | VGRHGGYFDY, the assay gave 4.73 (1 of 3 replicates). Variant GFMFDDYAMH | GIFWNSGSIGYADKVK | VGRGGGYFDY gave no signal (0 of 3 replicates). Variant GFTFDDYAMH | GISWNSGSIGYADEVW | VGIGGGYFDY showed 1.38 (3 of 3 replicates).

For GFTFDDYGMH | GISWNIGSIGYADLVK | VGRGGGYFDY, the assay gave 4.31 (1 of 3 replicates). Variant GFTFDDYAMH | GISWNSGSIGWADQVK | VGRGGGYFDY gave 5.80 (1 of 3 replicates). With GFTFDDYAMH | GISWNSGSIGYADFVK | VGRQGGYFGY the result was no signal (0 of 3 replicates). Variant GFKFDDYAMH | GISWNSGSIGYADRVK | VGRGGGYEDY gave 4.92 (3 of 3 replicates). For GFTFDDYAMH | GISQNSGSIGYADNVK | VGRPGGYFDY, the assay gave 5.11 (1 of 3 replicates). Variant GFTFDDRAMH | GISWNSGSIGYADYVK | VGRGGGYFDY showed 4.21 (1 of 3 replicates).

Variant GFTFDDYANH | GISWNSGSIGYADMVW | VGRGGGYFDY gave 3.11 (1 of 3 replicates). For GFTFDDYAMH | GISWNSGSIGYADCVK | VGRGGGYFDY, the assay gave 2.27 (3 of 3 replicates). Variant GFTFDDYAMH | GISVNRGSIGYADGVK | VGRGGGYFDY showed 5.46 (3 of 3 replicates). Variant GFTFDDYAMH | GISWNSGSEGYADDVK | VGRGGTYFDY showed 1.98 (3 of 3 replicates). With GFTFDDGRMH | GISWNSGSIGYADIVK | VGRGGGYFDY the result was no signal (0 of 3 replicates). With GFTKDDYAMH | GISWNSGSIGYADMVQ | VGRGGGYFDY the result was 3.29 (1 of 3 replicates).

Variant GDTFDDYAMH | GISWNSGSIGYADDVK | VGREGGYFDY gave 4.31 (2 of 3 replicates). With GFTFDDYAMH | GISWNSGSIGYADGVK | VGEGGGYMDY the result was 1.90 (3 of 3 replicates). With GFTFDDYAMH | GISRNSGSIGYADPVK | VGEGGGYFDY the result was 3.70 (3 of 3 replicates).

A selection of 7 entries from above:

| CDR-H1 | CDR-H2 | CDR-H3 | log10 Kd (nM), mean | detected |
|---|---|---|---|---|
| GFTFDYYAMH | GISWNSGSEGYADNVK | VGRGGGYFDY | -0.54 | 3 of 3 |
| GFTFDDYAMH | GISWNSGSIGYRDLVK | VLRGGGYFDY | no signal | 0 of 3 |
| GFTFDDYAMH | GQSLNSGSIGYADTVK | VGRGGGYFDY | 4.94 | 3 of 3 |
| GFTFDDYAMH | GISWNSGSIGYADILK | VGRGGGYFDY | no signal | 0 of 3 |
| GFTYDDYAMH | GISWNSGSIGYADVVK | VGRGGGYCDY | no signal | 0 of 3 |
| GFTFDDYAMH | GISWNSGSIGYASFVK | EGRGGGYFDY | 4.14 | 1 of 3 |
| LFTWDDYAMH | GISWNSGSIGYADKVK | VGRGGGYFDY | no signal | 0 of 3 |